The values below are quoted from earlier work in article PMC3867503, “Structure-Activity Relationships of Benzbromarone Metabolites and Derivatives as EYA Inhibitory Anti-Angiogenic Agents” (PLoS ONE, 2013).

SMILES strings stand for the structures.

This series concerns the target T1, recombinant human EYA3 (Homo sapiens, UniProt Q99504).
T1 construct: a splice variant of Q99504 corresponding to isoform 2 and missing residues 1 - 126; made in house
T1 sequence (Q99504 1-447 isoform Q99504-2): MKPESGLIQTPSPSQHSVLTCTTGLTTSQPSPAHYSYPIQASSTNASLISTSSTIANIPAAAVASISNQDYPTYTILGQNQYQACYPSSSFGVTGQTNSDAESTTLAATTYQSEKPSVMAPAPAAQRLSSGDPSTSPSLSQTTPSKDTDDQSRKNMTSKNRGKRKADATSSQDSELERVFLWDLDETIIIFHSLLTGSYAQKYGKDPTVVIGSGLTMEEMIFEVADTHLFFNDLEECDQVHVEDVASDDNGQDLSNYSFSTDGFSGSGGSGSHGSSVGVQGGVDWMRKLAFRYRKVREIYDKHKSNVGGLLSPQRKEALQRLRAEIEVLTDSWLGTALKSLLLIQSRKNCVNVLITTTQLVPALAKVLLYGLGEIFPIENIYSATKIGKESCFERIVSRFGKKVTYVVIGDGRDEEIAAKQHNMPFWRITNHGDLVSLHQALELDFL
More on the design: method as in PMID 22545090. The note with it: recombinant EYA3, substrate pNPP; reported previously; read-out: IC50 (95% confidence intervals), pNPP hydrolysis by EYA3; cited from earlier work.

What is called IC50 is the concentration that inhibits the measured activity by half. Take `CCc1oc2ccccc2c1C(=O)c1cc(Br)c(O)c(Br)c1` [BBR, Benzbromarone]: the half-maximal inhibitory concentration (IC50) is 8.1 µM.
